Measurements reported in patent publication US9150579B2, “Selective PI3K delta inhibitors” (Rhizen Pharmaceuticals SA, priority 2012, dated 2015).

By UniProt entry, the sequences of proteins in these tests, tags left out. Where a name states a change or a piece, a line headed by the entry shows the natural chain unless it says otherwise.
UniProt P42336, whole entry: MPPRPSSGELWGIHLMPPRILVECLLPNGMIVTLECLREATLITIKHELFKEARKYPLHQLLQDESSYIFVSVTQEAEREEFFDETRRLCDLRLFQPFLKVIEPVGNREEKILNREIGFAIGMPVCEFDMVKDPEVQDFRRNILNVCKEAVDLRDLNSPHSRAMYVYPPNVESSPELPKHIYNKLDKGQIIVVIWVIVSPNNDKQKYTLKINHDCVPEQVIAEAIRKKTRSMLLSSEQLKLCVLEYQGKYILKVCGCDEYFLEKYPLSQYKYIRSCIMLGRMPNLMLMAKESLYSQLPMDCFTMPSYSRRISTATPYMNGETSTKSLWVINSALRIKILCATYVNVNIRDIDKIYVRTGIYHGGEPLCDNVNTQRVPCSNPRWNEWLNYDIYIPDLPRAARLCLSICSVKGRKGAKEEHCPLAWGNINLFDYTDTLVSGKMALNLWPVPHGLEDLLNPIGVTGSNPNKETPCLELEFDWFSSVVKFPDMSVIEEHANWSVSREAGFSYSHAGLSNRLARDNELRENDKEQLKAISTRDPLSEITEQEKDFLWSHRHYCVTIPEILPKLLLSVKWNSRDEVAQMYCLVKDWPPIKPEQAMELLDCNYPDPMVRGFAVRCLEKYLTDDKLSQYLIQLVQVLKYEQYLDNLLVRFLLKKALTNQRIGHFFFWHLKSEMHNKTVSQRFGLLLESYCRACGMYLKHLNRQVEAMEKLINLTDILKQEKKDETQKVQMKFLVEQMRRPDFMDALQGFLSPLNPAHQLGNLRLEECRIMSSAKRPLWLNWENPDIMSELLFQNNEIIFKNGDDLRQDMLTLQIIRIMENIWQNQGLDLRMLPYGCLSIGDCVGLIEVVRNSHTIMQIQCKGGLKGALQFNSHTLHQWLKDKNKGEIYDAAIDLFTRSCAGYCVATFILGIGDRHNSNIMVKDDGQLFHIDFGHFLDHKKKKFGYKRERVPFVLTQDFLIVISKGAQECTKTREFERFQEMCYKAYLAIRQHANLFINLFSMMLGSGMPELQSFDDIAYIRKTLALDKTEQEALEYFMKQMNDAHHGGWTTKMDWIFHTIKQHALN
UniProt P42338: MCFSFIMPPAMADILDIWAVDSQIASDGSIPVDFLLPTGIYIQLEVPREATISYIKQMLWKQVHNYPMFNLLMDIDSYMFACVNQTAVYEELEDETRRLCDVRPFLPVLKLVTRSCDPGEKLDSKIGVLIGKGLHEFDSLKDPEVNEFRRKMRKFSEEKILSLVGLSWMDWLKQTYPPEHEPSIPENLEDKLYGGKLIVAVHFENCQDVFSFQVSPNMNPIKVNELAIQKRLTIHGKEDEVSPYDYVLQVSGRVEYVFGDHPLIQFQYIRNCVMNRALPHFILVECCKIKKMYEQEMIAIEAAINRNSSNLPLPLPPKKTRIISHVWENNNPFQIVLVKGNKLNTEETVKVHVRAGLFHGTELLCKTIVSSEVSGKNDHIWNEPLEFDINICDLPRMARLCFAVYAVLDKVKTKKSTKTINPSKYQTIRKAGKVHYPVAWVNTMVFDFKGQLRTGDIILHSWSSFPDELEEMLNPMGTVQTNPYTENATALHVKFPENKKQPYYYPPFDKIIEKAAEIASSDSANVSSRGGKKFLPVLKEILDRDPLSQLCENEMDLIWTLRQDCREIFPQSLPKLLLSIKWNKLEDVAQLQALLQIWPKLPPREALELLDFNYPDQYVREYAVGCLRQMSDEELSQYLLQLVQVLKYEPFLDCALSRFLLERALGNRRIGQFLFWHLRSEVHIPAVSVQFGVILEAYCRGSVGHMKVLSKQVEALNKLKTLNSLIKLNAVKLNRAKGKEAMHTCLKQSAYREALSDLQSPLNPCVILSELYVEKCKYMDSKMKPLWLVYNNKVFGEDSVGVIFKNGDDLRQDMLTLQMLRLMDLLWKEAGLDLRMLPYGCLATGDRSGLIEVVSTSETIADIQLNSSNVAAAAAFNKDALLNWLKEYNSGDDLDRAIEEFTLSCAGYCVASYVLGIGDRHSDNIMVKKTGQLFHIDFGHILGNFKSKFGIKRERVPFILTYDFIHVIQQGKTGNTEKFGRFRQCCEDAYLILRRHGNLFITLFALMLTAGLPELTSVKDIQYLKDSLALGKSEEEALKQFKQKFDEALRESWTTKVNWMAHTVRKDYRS
UniProt P48736: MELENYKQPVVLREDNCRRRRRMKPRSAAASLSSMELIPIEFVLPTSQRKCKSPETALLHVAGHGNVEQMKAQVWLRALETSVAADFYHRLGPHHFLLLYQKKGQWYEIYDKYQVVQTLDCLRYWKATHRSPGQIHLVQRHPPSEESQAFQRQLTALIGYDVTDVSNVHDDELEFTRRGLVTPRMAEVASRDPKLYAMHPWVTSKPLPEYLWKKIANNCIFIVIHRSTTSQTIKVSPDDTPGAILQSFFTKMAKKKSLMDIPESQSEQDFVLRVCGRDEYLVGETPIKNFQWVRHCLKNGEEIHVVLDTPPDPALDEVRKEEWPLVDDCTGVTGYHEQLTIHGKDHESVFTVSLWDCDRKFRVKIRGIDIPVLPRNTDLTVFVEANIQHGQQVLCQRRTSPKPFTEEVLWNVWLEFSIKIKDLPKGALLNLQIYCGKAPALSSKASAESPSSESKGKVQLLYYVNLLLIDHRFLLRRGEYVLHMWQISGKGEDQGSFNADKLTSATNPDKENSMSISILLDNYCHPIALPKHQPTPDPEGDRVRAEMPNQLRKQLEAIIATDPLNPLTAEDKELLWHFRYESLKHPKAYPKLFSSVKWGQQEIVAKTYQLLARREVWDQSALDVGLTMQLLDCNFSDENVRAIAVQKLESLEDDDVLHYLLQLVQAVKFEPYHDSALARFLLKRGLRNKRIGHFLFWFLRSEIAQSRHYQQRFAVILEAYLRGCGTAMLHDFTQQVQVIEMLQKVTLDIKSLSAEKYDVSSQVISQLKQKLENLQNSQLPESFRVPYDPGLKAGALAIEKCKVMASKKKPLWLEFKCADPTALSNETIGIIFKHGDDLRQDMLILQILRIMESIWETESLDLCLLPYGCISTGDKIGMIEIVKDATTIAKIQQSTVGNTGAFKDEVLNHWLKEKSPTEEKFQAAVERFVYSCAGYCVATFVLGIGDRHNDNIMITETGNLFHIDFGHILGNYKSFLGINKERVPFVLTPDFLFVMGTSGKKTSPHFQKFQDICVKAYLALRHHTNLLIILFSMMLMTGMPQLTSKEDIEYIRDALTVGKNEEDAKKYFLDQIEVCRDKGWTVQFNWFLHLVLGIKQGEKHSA

Key:
Assay type in all cases: biochemical
PI3K α = PI3K α (Homo sapiens (Human), UniProt P42336); test: Assay 1: Fluorescent (HTRF) determination of PI3K enzyme activity, alpha
Experimental: (§1) The homogenous time resolved fluorescence (HTRF) assay allows detection of 3,4,5-triphosphate (PIP3) formed as a result of phosphorylation of phosphotidylinositol 4,5-biphosphate (PIP2) by PI3K isoforms such as α, β, γ or δ.
(§2) PI3K isoform activity for α, β, γ or δ was determined using a PI3K human HTRF™ Assay Kit (Millipore, Billerica, Mass.) with modifications. All incubations were carried out at room temperature. […] After the initial incubation, 5 μl/well of 400 μM ATP was added and incubated for an additional 30 minutes. Reaction was terminated by adding 5 μl/well stop solution (Millipore, Billerica, Mass.). Five microliters of detection mix (Millipore, Billerica, Mass.) were then added to each well and was incubated for 6-18 h in the dark.

PI3K β = PI3K β (Homo sapiens (Human), UniProt P42338); test: Assay 1: Fluorescent (HTRF) determination of PI3K enzyme activity, beta
Experimental: as §1, §2

PI3K γ = PI3K γ (Homo sapiens (Human), UniProt P48736); test: Assay 1: Fluorescent (HTRF) determination of PI3K enzyme activity, gamma
Experimental: as §1, §2

| Compound | inhibition at 1 µM (PI3K α) [%] | inhibition at 1 µM (PI3K β) [%] | inhibition at 1 µM (PI3K γ) [%] |
| --- | --- | --- | --- |
| CC(C)Oc1ccc(-c2nn(C(C)c3oc4ccc(F)cc4c(=O)c3-c3cccc(F)c3)c3ncnc(N)c23)cc1F (racemic) [Compound B, 2-(1-(4-amino-3-(3-fluoro-4-isopropoxyphenyl)-1H-pyrazolo[3,4-d]pyrimidin-1-yl)ethyl)-6-fluoro-3-(3-fluorophenyl)-4H-chromen-4-one] | 37.9 | 18 | 18.3 |
| CC(C)Oc1ccc(-c2nn([C@@H](C)c3oc4ccc(F)cc4c(=O)c3-c3cccc(F)c3)c3ncnc(N)c23)cc1F [Compound B1, (S)-2-(1-(4-amino-3-(3-fluoro-4-isopropoxyphenyl)-1H-pyrazolo[3,4-d]pyrimidin-1-yl)ethyl)-6-fluoro-3-(3-fluorophenyl)-4H-chromen-4-one] | 19.1 | 44.9 | 47.2 |
| CC(C)Oc1ccc(-c2nn([C@H](C)c3oc4ccc(F)cc4c(=O)c3-c3cccc(F)c3)c3ncnc(N)c23)cc1F [Compound B2, (R)-2-(1-(4-amino-3-(3-fluoro-4-isopropoxyphenyl)-1H-pyrazolo[3,4-d]pyrimidin-1-yl)ethyl)-6-fluoro-3-(3-fluorophenyl)-4H-chromen-4-one] | 25.3 | 52 | 68.1 |
